The source of these data is patent US5624818, “Nucleic acids encoding regulatory proteins that dimerize with Mad or Max” (Fred Hutchinson Cancer Research Center, dated 1993).

The experiment has as its target c-Myc ProZip (human, UniProt P01106-1). Kind of experiment: in vitro translated 35S-protein on GST-MaxC124 glutathione-Sepharose, SDS-PAGE; paragraph 128 calls these mutants ones that fail to bind to truncated Max.

B1: GST-MaxC124 (other)
chain: DHIKDSFHSLRDSVPSLQGEKASRAQILDKATEYIQYMRRKNHTHQQDIDDLKRQNALLEQQVRALEKARSSAQLQTNYPSSDNSLYTNAKGSTISAFDGGSDSSSESEPEEPQSRKKLRMEAS
As for B1, the binding result is on record as “no binding”.
